Laboratory results taken from PubChem BioAssay AID588405 (Sanford-Burnham Center for Chemical Genomics, 2011).
Only a part is listed here, and it is no random draw. Active and inactive are the calls of the source.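 The calls were made as follows: active = inhibition of at least 50% at 20 µM; inactive = the rest.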

Experiment: inhibition of PEG-3 promoter activity – cell-based, HeLa, luciferase luminescence, primary screen (AID 588405)
Conditions: HeLa PEG-Prom luciferase reporter, overnight, at 20 µM, hits give high values
With COc1cccc(C(c2nnnn2C(C)(C)C)N2CCC(n3c(=O)[nH]c4ccccc43)CC2)c1OC (stereo not given) the inhibition was inactive: 34.4%. For CCOC(=O)N1CCC(Nc2ccc(C)cc2)CC1, the inhibition was inactive: 3.76%. With N/C(=N\O)c1c(N)no[n+]1[O-] the inhibition was inactive: 4.74%. In the case of O=C(OC1CN2CCC1CC2)C1c2ccccc2C=Cc2ccccc21 (stereo not given), the inhibition is reported as inactive: -1.53%. In the case of O=c1[nH]c2ccccc2n1C1CCN(C(c2cccs2)c2nnnn2C2CCCC2)CC1 (stereo not given), the inhibition is reported as inactive: 38.9%. In the case of CCCCn1nnnc1C(c1cccc(OC)c1OC)N1CCC(n2c(=O)[nH]c3ccccc32)CC1 (stereo not given), the inhibition is reported as inactive: 40%. With CCCCn1nnnc1C(c1ccccc1)N1CCC(n2c(=O)[nH]c3ccccc32)CC1 (stereo not given) the inhibition was inactive: 46%. In the case of COc1cc(C(=O)NCC2(N3CCOCC3)CCCCC2)cc(OC)c1C, the inhibition is reported as inactive: 1.65%. In the case of O=C(NCC1(N2CCOCC2)CCCCC1)c1cc(Br)ccc1Cl, the inhibition is reported as inactive: -9.63%. In the case of O=c1[nH]c2ccccc2n1C1CCN(C(c2cccs2)c2nnnn2C2CCCCC2)CC1 (stereo not given), the inhibition is reported as active: 55.6%. For COc1ccc(C(=O)NCC2(N3CCOCC3)CCCCC2)cc1OC, the inhibition was inactive: 8.77%. With O=c1[nH]c2ccccc2n1C1CCN(C(c2ccnc3ccccc23)c2nnnn2C2CCCC2)CC1 (stereo not given) the inhibition was inactive: 45.1%. For CN(C)C1(CNC(=O)c2cccc(C#N)c2)CCCCC1, the inhibition was inactive: 1.17%. With c1ccc(CN2CCC(Nc3ccccc3)CC2)cc1 the inhibition was inactive: -1.82%. For Cc1cc(N(CCCl)CCCl)ccc1C=O, the inhibition was inactive: 0.22%. With O=c1[nH]c2ccccc2n1C1CCN(C(c2ccccc2)c2nnnn2C2CCCC2)CC1 (stereo not given) the inhibition was inactive: 17.4%. For CCCN1CCC(Nc2cc(OC)cc(OC)c2)CC1, the inhibition was inactive: 13.6%. In the case of CC(C)(C)n1nnnc1C(c1cccc2ccccc12)N1CCC(n2c(=O)[nH]c3ccccc32)CC1 (stereo not given), the inhibition is reported as active: 65.7%. With N#Cc1ccc(C(=O)NCC2(N3CCCCC3)CCCCC2)cc1 the inhibition was inactive: -30.1%. In the case of CC(C)(C)OC(=O)N1CCC(N(C(=O)c2ccccc2)c2ccc(Cl)cc2)CC1, the inhibition is reported as inactive: 21.7%. In the case of Cc1ccccc1NC1(C#N)CCN(Cc2ccccc2)CC1, the inhibition is reported as inactive: 9.02%. In the case of CC(C)(C)n1nnnc1C(c1ccnc2ccccc12)N1CCC(n2c(=O)[nH]c3ccccc32)CC1 (stereo not given), the inhibition is reported as inactive: 35.9%. With CCN1CCC(Nc2cccc(F)c2)CC1 the inhibition was inactive: 9.77%. With COc1ccc(C(c2nnnn2C2CCCCC2)N2CCC(n3c(=O)[nH]c4ccccc43)CC2)cc1 (stereo not given) the inhibition was inactive: 21.9%. For O=C(NCC1(N2CCCCC2)CCCCC1)c1ccco1, the inhibition was inactive: 2.08%. For Cn1c(=O)[nH]cc(N(CCCl)CCCl)c1=O, the inhibition was inactive: 20.8%. In the case of CN(C)c1ccc(C(=O)NCC2(N3CCCCC3)CCCCC2)cc1, the inhibition is reported as inactive: 21.2%. In the case of CC(=O)N(c1ccccc1)C1CCNCC1, the inhibition is reported as inactive: 7.05%. In the case of COc1cccc(C(c2nnnn2C2CCCCC2)N2CCC(n3c(=O)[nH]c4ccccc43)CC2)c1OC (stereo not given), the inhibition is reported as active: 60.9%. With CCC(c1nnnn1C1CCCCC1)N1CCC(n2c(=O)[nH]c3ccccc32)CC1 (stereo not given) the inhibition was inactive: 9.78%. For O=c1[nH]c2ccccc2n1C1CCN(C(c2ccnc3ccccc23)c2nnnn2C2CCCCC2)CC1 (stereo not given), the inhibition was inactive: 29.3%. In the case of COc1cc(OC)cc(C(=O)NCC2(N3CCCCC3)CCCCC2)c1, the inhibition is reported as inactive: -8.39%. In the case of Cc1ccc(C(=O)NCC2(N3CCCCC3)CCCCC2)o1, the inhibition is reported as inactive: 15.9%. For Fc1ccccc1NC1CCN(Cc2ccccc2)CC1, the inhibition was inactive: 13.1%. For Cc1ccc(NC2(C#N)CCN(Cc3ccccc3)CC2)cc1, the inhibition was inactive: -12.9%. In the case of COc1cccc(C(=O)N(c2cc(C)cc(C)c2)C2CCN(C(=O)OC(C)(C)C)CC2)c1, the inhibition is reported as inactive: 26%. With COc1cc(OC)cc(C(=O)NCC2(N3CCOCC3)CCCCC2)c1 the inhibition was inactive: -2.49%. With COc1cccc(C(c2nnnn2C2CCCC2)N2CCC(n3c(=O)[nH]c4ccccc43)CC2)c1OC (stereo not given) the inhibition was inactive: 47.4%. With CCC(CO)(C(=O)OC1CN2CCC1CC2)c1ccccc1 (stereo not given) the inhibition was inactive: 7.13%. With CN1CCC(Nc2ccc(Cl)cc2)CC1 the inhibition was inactive: 4.6%. For CCOc1ncccc1C(=O)NCC1(N2CCOCC2)CCCCC1, the inhibition was inactive: 7.98%. With CN1CCC(Nc2ccc(F)c(Cl)c2)CC1 the inhibition was inactive: 11.8%. For CC(C)(C)OC(=O)N1CCC(Nc2ccccc2)CC1, the inhibition was inactive: -20.8%. For O=C(O)C1(Nc2ccccc2)CCN(Cc2ccccc2)CC1, the inhibition was inactive: 1.82%. For CCCOc1ccc(C(=O)NCC2(N(C)C)CCCCC2)cc1, the inhibition was inactive: 11.3%. With O=c1[nH]c2ccccc2n1C1CCN(C(c2cc3ccccc3o2)c2nnnn2C2CCCC2)CC1 (stereo not given) the inhibition was inactive: -3.48%. For O=c1[nH]c2ccccc2n1C1CCN(C(c2ccccc2OC(F)(F)F)c2nnnn2C2CCCCC2)CC1 (stereo not given), the inhibition was inactive: 24.7%. With O=C(NCC1(N2CCCCC2)CCCCC1)c1ccc(Cl)nc1 the inhibition was inactive: 26.9%. In the case of Cc1cc(C)cc(N(C(=O)c2ccccc2)C2CCN(C(=O)OC(C)(C)C)CC2)c1, the inhibition is reported as inactive: 14.9%. With O=C(NCC1(N2CCOCC2)CCCCC1)c1cc2ccccc2o1 the inhibition was inactive: 11.6%. For O=c1[nH]c2ccccc2n1C1CCN(C(c2cc3ccccc3o2)c2nnnn2C2CCCCC2)CC1 (stereo not given), the inhibition was active: 79.1%. With O=C(OC1CN2CCC1CC2)C1c2ccccc2Oc2ccccc21 (stereo not given) the inhibition was inactive: 10.2%. For O=C(NCC1(N2CCCCC2)CCCCC1)c1ccc(Cl)s1, the inhibition was inactive: 9.51%. In the case of N#CC1(Nc2ccccc2)CCN(Cc2ccccc2)CC1, the inhibition is reported as inactive: 6.86%. With COc1ccc(Cl)cc1C(=O)NCC1(N2CCOCC2)CCCCC1 the inhibition was inactive: 6.1%. For CCOC(=O)N1CCC(Nc2ccc(OC)cc2)CC1, the inhibition was inactive: 9.37%. With CCCCn1nnnc1C(c1ccc(OC)cc1)N1CCC(n2c(=O)[nH]c3ccccc32)CC1 (stereo not given) the inhibition was inactive: 18%. In the case of COc1ccc(C(=O)NCC2(N3CCCCC3)CCCCC2)cc1, the inhibition is reported as inactive: 3.79%. In the case of CCC(c1nnnn1C1CCCC1)N1CCC(n2c(=O)[nH]c3ccccc32)CC1 (stereo not given), the inhibition is reported as inactive: 2.94%. In the case of CC(C)(C)OC(=O)N1CCC(N(C(=O)c2ccccc2)c2ccc(F)cc2)CC1, the inhibition is reported as inactive: 6.28%.
